# Yeast mating assay 2: variants of the scFv Ab-95

Target: peptide PDVDLGDISGINAS, taken from heptad repeat 2 (HR2) of SARS-CoV-2 spike.

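Phage display of a naive human antibody library on the peptide gave the parent. Variants in AAYL52 differ from the parent at up to three CDR positions; double and triple changes were sampled at random. Affinity was read by AlphaSeq, a pooled yeast mating assay with surface-displayed partners. Binding brings cells together so that they mate, and sequencing counts the barcode pairs among the diploids. Read counts were normalised to the haploid input and turned into Kd by a linear fit to BCL2-family pairs of known affinity, for each replicate. There are three technical replicates.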

Each scFv is VH, three GGGGS repeats, VL, as in the parent Ab-95, and differs from it in the CDRs of the light chain only.
VH: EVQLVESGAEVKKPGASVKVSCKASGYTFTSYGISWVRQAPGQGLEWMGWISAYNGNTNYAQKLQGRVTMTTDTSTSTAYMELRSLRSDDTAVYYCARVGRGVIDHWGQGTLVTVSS
VL: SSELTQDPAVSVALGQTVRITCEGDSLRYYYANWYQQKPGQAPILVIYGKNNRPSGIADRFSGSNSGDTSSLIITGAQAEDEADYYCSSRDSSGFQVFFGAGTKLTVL

Substitutions are numbered in sequence along the VL above, starting at 1 (not Kabat).
The read-out is the apparent dissociation constant on a log10 scale (nM): the lower, the stronger.
An entry "nd" has no value in the source: the pair was not observed among the diploids in that replicate. This suggests poor binding but is not conclusive.

changes,"log10 Kd, replicates",signal with controls
Y30K G49R R53D,nd 3.06 nd,0/9
S26P D91H F98P,2.73 2.25 2.76,6/9 (3.61)
Y29S D91G,1.94 2.23 1.52,2/9 (3.25)
R53A P54K,3.99 3.49 3.88,3/9 (3.38)
E23I S26K G49K,4.26 nd 3.92,4/9 (3.93)
G24W N52G V97K,nd 2.81 nd,0/9
A32I S92N F95V,nd nd nd,0/9
G24K S26I G94V,3.29 4.40 nd,2/9 (4.20)
S92N S93G Q96V,2.28 2.31 2.89,2/9 (4.42)
G94R F95W Q96M,4.30 4.12 nd,3/9 (4.51)
N33K S55K S88W,5.14 5.96 nd,3/9 (4.31)
S26V S55D Q96K,3.36 3.74 3.81,3/9 (3.86)
R90Q S93Y G94I,3.20 2.53 1.97,0/9
N52A S88Y F95C,nd nd 3.23,2/9 (4.27)
R28E Y30V S88Q,5.09 nd 4.37,2/9 (3.90)
D91A G94M F98L,2.76 2.90 2.14,2/9 (3.07)
E23I Y31E R53W,3.05 3.80 2.85,3/9 (3.52)
A32Y F95H Q96A,nd nd nd,0/9
Y30I S92T F98I,3.16 2.92 3.44,5/9 (3.74)
G24C S26G Y30Q,2.57 2.03 1.67,2/9 (4.66)
N51S S88D F98G,3.85 3.46 nd,5/9 (4.09)
Y31G S93D G94M,3.04 3.08 2.82,4/9 (4.00)
E23S S92H,2.60 2.77 2.34,2/9 (3.34)
G24W N52P F95T,3.50 4.07 nd,4/9 (4.07)
A32M S88Q F98K,4.12 nd nd,1/9 (3.01)
L27I Y31F G94V,nd nd nd,0/9
G24I D25K K50L,nd 5.68 nd,4/9 (4.03)
R28E Y31V P54S,2.76 3.02 2.21,5/9 (3.84)
P54Y S88W V97W,nd nd 4.52,2/9 (4.58)
N51Q D91H F95R,3.02 2.50 2.74,5/9 (4.81)

For reference, 3 entries of the list once more:

{"changes": "G24W N52G V97K", "log10 Kd, replicates": "nd 2.81 nd", "signal with controls": "0/9"}
{"changes": "R28E Y31V P54S", "log10 Kd, replicates": "2.76 3.02 2.21", "signal with controls": "5/9 (3.84)"}
{"changes": "N51Q D91H F95R", "log10 Kd, replicates": "3.02 2.50 2.74", "signal with controls": "5/9 (4.81)"}

As a blank, each scFv also met three strains without target: over library AAYL52, 28% of these pairings were detected, typically at 3.91 and seldom below 2.90. Also given: how often the same scFv was detected with the empty control strains, with their mean in brackets.

Source: Engelhart et al. 2022 (doi:10.1038/s41597-022-01779-4), MIT Lincoln Laboratory and A-Alpha Bio; data file from the FLAb repository.